Test results from ChEMBL document CHEMBL1153085, “Spare interactions of highly potent [Arg(14),Lys(15)]nociceptin for cooperative induction of ORL1 receptor activation” (Bioorg Med Chem, 2009).

Amino acid sequences for entries named in this document (tags omitted).
UniProt P35370, whole entry Y207A: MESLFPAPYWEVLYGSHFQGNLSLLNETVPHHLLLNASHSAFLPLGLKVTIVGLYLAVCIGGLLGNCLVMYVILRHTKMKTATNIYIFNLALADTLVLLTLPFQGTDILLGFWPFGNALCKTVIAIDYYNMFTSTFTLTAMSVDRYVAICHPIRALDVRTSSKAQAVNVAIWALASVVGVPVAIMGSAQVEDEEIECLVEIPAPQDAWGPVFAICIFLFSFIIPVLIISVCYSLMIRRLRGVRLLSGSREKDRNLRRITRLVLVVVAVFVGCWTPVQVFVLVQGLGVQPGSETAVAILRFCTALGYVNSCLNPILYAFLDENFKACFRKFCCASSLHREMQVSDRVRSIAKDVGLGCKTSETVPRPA
UniProt P35370, whole entry D206A: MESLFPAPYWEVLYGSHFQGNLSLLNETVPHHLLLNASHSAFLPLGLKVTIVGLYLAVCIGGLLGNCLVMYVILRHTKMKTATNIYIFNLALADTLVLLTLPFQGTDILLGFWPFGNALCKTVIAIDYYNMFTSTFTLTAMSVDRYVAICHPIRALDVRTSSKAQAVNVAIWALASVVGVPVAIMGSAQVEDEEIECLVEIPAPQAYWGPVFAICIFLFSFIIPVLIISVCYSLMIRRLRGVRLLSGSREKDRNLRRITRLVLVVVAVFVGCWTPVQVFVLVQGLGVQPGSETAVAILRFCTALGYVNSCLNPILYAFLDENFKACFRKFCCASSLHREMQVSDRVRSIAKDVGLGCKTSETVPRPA

What was measured:
Nociceptin receptor [1] = biological target: Nociceptin receptor (Rattus norvegicus, UniProt P35370, Y207A); experiment: biochemical
Nociceptin receptor [2] = biological target: Nociceptin receptor (Rattus norvegicus, UniProt P35370, D206A); experiment: biochemical

Row | Compound | IC50 (Nociceptin receptor [1]) | IC50 (Nociceptin receptor [2])
1 | CC(C)C[C@H](NC(=O)[C@H](CCCCN)NC(=O)[C@H](CCCN=C(N)N)NC(=O)[C@H](C)NC(=O)[C@H](CO)NC(=O)[C@H](CCCCN)NC(=O)[C@H](CCCN=C(N)N)NC(=O)[C@H](C)NC(=O)CNC(=O)[C@@H](NC(=O)[C@H](Cc1ccccc1)NC(=O)CNC(=O)CNC(=O)[C@@H](N)Cc1ccccc1)[C@@H](C)O)C(=O)N[C@@H](C)C(=O)N[C@@H](CC(N)=O)C(=O)N[C@@H](CCC(N)=O)C(=O)O (stereo in doubt; form 1) [NOCICEPTIN] | 910 pM | 1020 pM
2 | CC(C)C[C@H](NC(=O)[C@H](CCCCN)NC(=O)[C@H](CCCN=C(N)N)NC(=O)[C@H](C)NC(=O)[C@H](CO)NC(=O)[C@H](CCCCN)NC(=O)[C@H](CCCN=C(N)N)NC(=O)[C@H](C)NC(=O)CNC(=O)[C@@H](NC(=O)[C@H](Cc1ccccc1)NC(=O)CNC(=O)CNC(=O)[C@@H](N)Cc1ccccc1)[C@@H](C)O)C(=O)N[C@@H](C)C(=O)N[C@@H](CC(N)=O)C(=O)N[C@@H](CCC(N)=O)C(=O)O (stereo in doubt; form 2) [NOCICEPTIN] | 460 pM | 540 pM
